# Sampled rows, rich in hits. Any-hit rate of the full collection: about 0.51%.
# CCT modulator – cytosolic chaperonin activity modulation; purified chaperonin ATPase assay, HTRF ADP detection, 30 min; activity change, % (test concentration not listed), hits read low; 0.3% of 360,000 active; AID 651819; in the data active = activity change below about -30%; note: % is set by controls: 0 for no effect and ±100 for the full control effect
#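 Nucleotide hydrolysis assay: TRiC at 20–40 nM final (set by batch activity) with 10 uM ATP, 30 min at 37 °C, in presence of 76 uM compound. Detection by competitive ADP HTRF, 30 min ambient.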
# Rango-impB inh – Rango-importin beta binding inhibition; Q14974; Rango CFP/YFP FRET sensor + importin beta, 45 min; Potency, µM (top dose mostly 92.2 µM), for the others: top-dose inhibition of complex formation; 0.031% of 340,000 active; calls by dose curve;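 note: potency is the fitted concentration of half-maximal effect; 0% = DMSO wells and 100% = buffer wells lacking importin beta; nearly all actives have a fitted effect of over 15% in size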
#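 FRET biosensor Rango (snurportin 1 IBB between N-terminal EYFP and C-terminal Cerulean), 50 nM in PBS/1 mM DTT/0.02% Tween-20/0.1% BSA, preincubated 5 min RT with compound; 0.125 microM importin beta added, 45 min RT, CFP/YFP FRET ratio read.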
# Rango release inh – inhibitors of RanGTP-induced Rango-importin beta complex dissociation. O95149+P62826. Biochemical FRET Rango-importin beta, RanGTP-induced dissociation. Potency, µM (highest dose often 46.1 µM), inactives show at the highest dose activity change, negative = inhibition. 0.071% of 340,000 active. AID 540253; calls by dose curve; note: potency is the fitted concentration of half-maximal effect; % of control where 0% means no effect; nearly all actives have a fitted effect of over 45% in size
#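 Compounds sat 5 min at room temperature with 0.1 uM Rango biosensor plus 0.25 uM importin beta, then FRET pre-read. RanGTP-RCC1 (0.6 uM Ran, 2mM GTP, 0.2 uM RCC1) added for 45 min, and the CFP/YFP post-read measured blocked complex dissociation.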
# Mm-Cpn inhibitor – M. maripaludis TRiC chaperonin inhibition; purified Mm-Cpn ATPase, ADP Transcreener TR-FRET; Potency, µM (doses to about 76.9 µM), inactives show at the top dose activity, negative = inhibition, usual class: inhibitors; AID 504842; 0.031% of 330,000 active; note: potency is the fitted concentration of half-maximal effect; % is set by controls: 0 for no effect and ±100 for the full control effect; nearly all actives have a fitted effect of over 80% in size
#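 Inhibition of chaperonin ATP hydrolysis is measured as reduced ADP production, detected by competitive TR-FRET in which signal falls with ADP. Final enzyme 25 nM and ATP 10 uM, reacted 30 min at 37°C.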
# a7 integrin act – activators of alpha7 integrin expression for muscular dystrophy | alpha7betagal myoblasts, beta-gal FDG fluorescence, 48 h | Potency, µM (titrated, usually from 38.3 µM), for inactives: at the highest dose activation, usual class: activators | 0.064% of 350,000 active | AID 624291;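 note: potency is the fitted concentration of half-maximal effect; 100% = response of the positive control SU9516; nearly all actives have a fitted effect of over 60% in size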
#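 Alpha7betagal+/- myoblasts (passage 13) were plated 16-24 hr, then exposed to compounds (1:260 dilution of DMSO stock) for 48 hours at 37C. After MPER lysis, β-galactosidase reporter activity was read as FDG fluorescence (ex 480/em 540) after 30 minutes.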
# Numbers without * were called inactive; ? = inconclusive; nt = no result; [ ] = dose if it differs, or a comment. Unless noted, calls come from the whole dose curve; as a rule, active = well fitted curve in the direction sought with a large enough effect; inconclusive = small, poorly fitted or top-dose-only effect, or another doubt; inactive = no such curve, though single readings can be large; an effect the other way counts as inactive or inconclusive.
# Codes – A = CCT modulator; B = Rango-impB inh; C = Rango release inh; D = Mm-Cpn inhibitor; E = a7 integrin act
CC(C)CN(C(=O)COC(=O)c1cc(=O)[nH]c2ccccc12)c1c(N)n(Cc2ccccc2)c(=O)[nH]c1=O
  A: -30*	B: -3%	C: -7%	D: nt	E: -13%

CCNC(=O)COC(=O)c1cc(=O)[nH]c2ccccc12
  A: -35*	B: -1%	C: 0%	D: -1%	E: -3%

CCN(C(=O)COC(=O)c1cc(=O)[nH]c2ccccc12)c1c(N)n(Cc2ccccc2)c(=O)[nH]c1=O
  A: -2	B: 1%	C: -7%	D: nt	E: ?

O=S(=O)(NNc1ccc(Cl)nn1)c1ccc(F)cc1
  A: -69*	B: -3%	C: 21%	D: 1%	E: -29%

COc1ccc(Cn2c(N)c(C#N)c3nc4ccccc4nc32)cc1OC
  A: 1	B: ?	C: 12µM*	D: -2%	E: -8%

COc1ccc(CCn2c(N)c(C#N)c3nc4ccccc4nc32)cc1OC
  A: -1	B: ?	C: ?	D: -1%	E: -7%

CC1(C(=O)NS(=O)(=O)c2ccc(Cl)cc2)CCN1C(=O)CCC1CCCC1 (stereo not drawn)
  A: 0	B: nt	C: nt	D: nt	E: nt

CN1CCN(c2cc(N3CCN(C(=O)c4ccco4)CC3)c3c4c(onc24)-c2ccccc2C3=O)CC1
  A: -1	B: 1%	C: 10%	D: -10%	E: -67%

O=C1c2ccccc2-c2onc3c(N4CCN(CCO)CC4)cc(N4CCN(C(=O)c5ccco5)CC4)c1c23
  A: 1	B: 37µM*	C: 13%	D: -16%	E: -88%

O=C(O)CCCNc1cc(N2CCN(C(=O)c3ccco3)CC2)c2noc3c2c1C(=O)c1ccccc1-3
  A: 0	B: ?	C: ?	D: 35µM*	E: 18%

CC(C)Oc1ccc(C(=O)OC(C)C(=O)NC2CCCCC2C)cc1 (stereo not drawn)
  A: -4	B: 26µM*	C: -3%	D: 1%	E: 23%

CC(=O)c1ccc(OC(C)C(=O)NC2CCCCC2C)cc1 (stereo not drawn)
  A: 0	B: 0%	C: -13%	D: 0%	E: 16%

CNc1nc(N/N=C/c2cc3c(cc2[N+](=O)[O-])OCO3)nc(Nc2ccccc2)n1
  A: 0	B: 65µM*	C: 7%	D: 2%	E: -77%

CNc1nc(N/N=C/c2cc([N+](=O)[O-])ccc2F)nc(Nc2ccccc2)n1
  A: 1	B: -2%	C: 0%	D: nt	E: -52%

O=C(O)c1ccc(S(=O)(=O)N[C@H](Cc2ccc(C(F)(F)F)cc2)C(=O)O)cc1
  A: nt	B: nt	C: nt	D: -1%	E: nt

COCC(=O)N(C)C[C@H]1Oc2cc(C#Cc3cccnc3)ccc2S(=O)(=O)N([C@H](C)CO)C[C@H]1C
  A: 3	B: nt	C: nt	D: nt	E: 6%

Cc1ccc(P(C)(=O)c2ccc(C)cc2)cc1
  A: -2	B: 0%	C: 1%	D: 1%	E: -9%

Cc1ccc(NP(=O)(Nc2ccc(C)cc2)Nc2ccc(C)cc2)cc1
  A: -1	B: 5%	C: 5%	D: 1%	E: 3.2µM*

C=CCOc1c(Cl)cc(CNc2ccc(N(C)C)cc2)cc1OC
  A: -9	B: 5%	C: -8%	D: 16µM*	E: -61%

COCCCN1C(=O)C(CC(=O)NC(c2ccccc2)c2ccccc2)CC(C(=O)N2CCCCCC2)=C1C (stereo not drawn)
  A: 0	B: nt	C: nt	D: nt	E: nt

COc1ccc2c(C)cc(SCC(=O)NC3CCCCC3)nc2c1
  A: -3	B: 2%	C: 0%	D: -5%	E: 22%

COc1ccc2c(C)cc(SCC(=O)N3CCOCC3)nc2c1
  A: -1	B: 33µM*	C: -8%	D: -4%	E: 7%

CCN(CC)C(=O)C1=C(C)N(Cc2ccc(C(C)(C)C)cc2)C(=O)C(CC(=O)NCc2cccs2)C1 (stereo not drawn)
  A: 3	B: nt	C: nt	D: nt	E: -19%

CC1Sc2ccc(S(=O)(=O)N3CCC(C(=O)NCc4ccco4)CC3)cc2NC1=O (stereo not drawn)
  A: -34*	B: 0%	C: -14%	D: 3%	E: -24%

CC1(c2nnnn2Cc2ccccc2)CCC(=O)N1CCc1ccc(O)cc1 (stereo not drawn)
  A: 0	B: nt	C: nt	D: nt	E: nt

CCOC(=O)c1ccc2cccc(C)n2c1=O
  A: -4	B: ?	C: 12µM*[inhibitor]	D: 1%	E: 18%

O=c1[nH]c(CCl)nc2cc(-c3ccc(F)cc3)sc12
  A: -40*	B: -1%	C: -8%	D: 0%	E: -59%

COCCNc1nc2cc(-c3ccc(F)cc3)sc2c(=O)n1C
  A: 1	B: nt	C: nt	D: nt	E: nt

CCN(CC)c1ccc2nc3c4ccccc4c(=O)cc-3oc2c1
  A: -48*	B: 3%	C: 5%	D: -4%	E: 5%

COc1ccc(C)cc1NC(=O)c1sc2ncnc(N3CCN(c4ccccn4)CC3)c2c1C
  A: -139*	B: -2%	C: 15%	D: -10%	E: -149%

# Some of the entries so far, as labelled records:
COc1ccc(Cn2c(N)c(C#N)c3nc4ccccc4nc32)cc1OC
  CCT modulator: 1 | Rango-impB inh: ? | Rango release inh: 12µM* | Mm-Cpn inhibitor: -2% | a7 integrin act: -8%
COc1ccc2c(C)cc(SCC(=O)NC3CCCCC3)nc2c1
  CCT modulator: -3 | Rango-impB inh: 2% | Rango release inh: 0% | Mm-Cpn inhibitor: -5% | a7 integrin act: 22%
CC1(C(=O)NS(=O)(=O)c2ccc(Cl)cc2)CCN1C(=O)CCC1CCCC1 (stereo not drawn)
  CCT modulator: 0 | Rango-impB inh: nt | Rango release inh: nt | Mm-Cpn inhibitor: nt | a7 integrin act: nt
